This is an account of results in PMC2582960, “A Structural Model of the Staphylococcus aureus ClfA–Fibrinogen Interaction Opens New Avenues for the Design of Anti-Staphylococcal Therapeutics” (PLoS Pathogens, 2008).

Protein sequences, listed by entry. Tags and fused reporters are not part of them. Lines headed by an entry give the natural chain unless they say otherwise; changes in a name come on top. Chains listed by the source or under a name are the forms on record and can include a tag or linker.
UniProt P02671, other isoform, or with tags, fused parts or gaps, chain 1 of 3: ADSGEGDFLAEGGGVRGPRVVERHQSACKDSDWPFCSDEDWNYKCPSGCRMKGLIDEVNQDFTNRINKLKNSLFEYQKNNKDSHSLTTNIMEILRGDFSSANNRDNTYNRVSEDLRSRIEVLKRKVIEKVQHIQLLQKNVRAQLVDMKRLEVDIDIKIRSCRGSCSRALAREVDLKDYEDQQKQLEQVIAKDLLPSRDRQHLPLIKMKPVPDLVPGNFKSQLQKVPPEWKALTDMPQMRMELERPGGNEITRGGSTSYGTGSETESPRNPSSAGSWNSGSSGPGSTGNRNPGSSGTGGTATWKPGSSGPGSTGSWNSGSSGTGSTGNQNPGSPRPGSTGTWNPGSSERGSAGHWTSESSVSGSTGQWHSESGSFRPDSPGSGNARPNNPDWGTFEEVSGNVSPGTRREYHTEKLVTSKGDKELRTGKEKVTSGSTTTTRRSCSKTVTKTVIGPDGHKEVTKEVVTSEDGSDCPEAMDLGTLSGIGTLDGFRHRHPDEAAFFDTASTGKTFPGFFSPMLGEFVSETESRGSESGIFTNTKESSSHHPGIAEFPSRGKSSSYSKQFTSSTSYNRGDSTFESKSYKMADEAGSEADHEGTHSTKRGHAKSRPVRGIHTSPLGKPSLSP
UniProt Q53653: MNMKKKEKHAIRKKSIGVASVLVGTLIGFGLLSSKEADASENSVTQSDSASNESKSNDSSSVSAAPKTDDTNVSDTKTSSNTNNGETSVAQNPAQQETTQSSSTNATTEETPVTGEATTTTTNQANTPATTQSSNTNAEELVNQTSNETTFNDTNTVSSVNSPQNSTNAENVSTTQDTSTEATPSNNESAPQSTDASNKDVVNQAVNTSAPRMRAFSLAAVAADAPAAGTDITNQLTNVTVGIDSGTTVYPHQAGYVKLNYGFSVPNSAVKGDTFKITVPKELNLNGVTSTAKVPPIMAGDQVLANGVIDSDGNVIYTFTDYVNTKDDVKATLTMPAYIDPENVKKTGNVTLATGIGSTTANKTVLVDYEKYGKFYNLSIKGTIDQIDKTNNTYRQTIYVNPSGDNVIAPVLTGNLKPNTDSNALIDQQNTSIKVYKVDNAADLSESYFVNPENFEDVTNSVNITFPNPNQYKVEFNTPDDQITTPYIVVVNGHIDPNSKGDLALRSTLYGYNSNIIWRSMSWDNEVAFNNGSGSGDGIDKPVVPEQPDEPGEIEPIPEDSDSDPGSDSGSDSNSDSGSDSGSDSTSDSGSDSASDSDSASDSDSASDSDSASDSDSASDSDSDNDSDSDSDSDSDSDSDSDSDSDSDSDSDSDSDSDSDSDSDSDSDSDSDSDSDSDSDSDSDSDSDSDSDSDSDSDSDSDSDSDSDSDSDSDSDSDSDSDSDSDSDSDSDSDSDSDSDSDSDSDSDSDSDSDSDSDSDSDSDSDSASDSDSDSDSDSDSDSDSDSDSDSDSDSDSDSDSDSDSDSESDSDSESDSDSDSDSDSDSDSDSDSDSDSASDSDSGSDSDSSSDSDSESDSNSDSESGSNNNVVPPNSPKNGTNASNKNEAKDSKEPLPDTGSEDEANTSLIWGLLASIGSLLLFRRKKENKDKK

For this assay, the target named is human fibrinogen (Fg), full length (human) (UniProt P02671). Put plainly: ELISA; human Fg or GST fusion protein coated (1 µg/well); His-tagged ClfA added in increasing concentrations in HBS (10 mM HEPES, 100 mM NaCl, 3 mM EDTA, pH 7.4), 25°C, 1 h; bound ClfA detected with anti-His antibodies; apparent Kd. For orientation: In an ELISA, binding on a coated surface is turned into a signal by an enzyme label.

With “ClfA_(229–545) (clumping factor A, N2N3 domains) (from UniProt Q53653 229-545) (domain or fragment)”, the Kd came to 305 nM.
